Experimental findings from patent US20040234501A1, “Hepatitis b virus proliferation inhibitor” (priority 2001, published 2004) are described below.

One assay has as its system hepatitis B virus. Nature of the assay: Amount of hepatitis B virus in the blood (HBV-DNA) and emergence of resistant virus in a patient with chronic hepatitis B. It is filed as in vivo, human. Here is the method:
(§1) Confirmation of the effect of IFN administration to a patient with chronic hepatitis B:
(§2) Therefore, 3,000,000 units of IFN-α were administered for a total of 28 days.

The nature of assay [1]: Liver function (GPT) in a patient with chronic hepatitis B. It is filed as in vivo, human. On the procedure: as §1, §2
[2] abbreviates: about 4 months after termination of IFN-β administration.

B1: interferon-β (protein, UniProt P01574 22-187, looked up)
Interferon beta: MSYNLLGFLQRSSNFQCQKLLWQLNGRLEYCLKDRMNFDIPEEIKQLQQFQKEDAALTIYEMLQNIFAIFRQDSSSTGWNETIVENLLANVYHQINHLKTVLEEKLEKEDFTRGKLMSSLHLKRYYGRILHYLKAKEYSHCAWTIVRVEILRNFYFINRLTGYLRN
With B1, the “hepatitis B virus in the blood” value in the assay with hepatitis B virus (3,000,000 units IFN-β intravenously for 30 weeks, at termination of administration, YMDD mutant case during long-term lamivudine) is “became negative”; in the assay with hepatitis B virus (setting [2]) it was “remained negative”. In addition, the liver function result in assay [1] (3,000,000 units IFN-β intravenously for 30 weeks, at termination of administration) is “normalized”; in assay [1] (setting [2]) it was “remained normal”.
